This is a selection; strong and weak results do not stand in their true shares. Calls of active or inactive are those of the source.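 How the source made its calls: active means inhibition above the mean inhibition of all tested compounds plus 3 SD, set per campaign (cut at about 52% in these data); inactive means the rest.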
biological target: Nuclear receptor coactivator 2 (Homo sapiens) (UniProt Q15596); test: decrease of SRC2 fusion reporter luminescence – cell-based, SRC2 inhibitor project, primary screen (AID 651957); conditions: HEK293 GAL4-SRC2 luciferase reporter, at 9 µM, active compounds read high;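 further: 0% = DMSO treated cells and 100% = cells given Gossypol at 36 µM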

By UniProt entry, the sequences of proteins in these tests, tags left out.
UniProt Q15596, whole entry: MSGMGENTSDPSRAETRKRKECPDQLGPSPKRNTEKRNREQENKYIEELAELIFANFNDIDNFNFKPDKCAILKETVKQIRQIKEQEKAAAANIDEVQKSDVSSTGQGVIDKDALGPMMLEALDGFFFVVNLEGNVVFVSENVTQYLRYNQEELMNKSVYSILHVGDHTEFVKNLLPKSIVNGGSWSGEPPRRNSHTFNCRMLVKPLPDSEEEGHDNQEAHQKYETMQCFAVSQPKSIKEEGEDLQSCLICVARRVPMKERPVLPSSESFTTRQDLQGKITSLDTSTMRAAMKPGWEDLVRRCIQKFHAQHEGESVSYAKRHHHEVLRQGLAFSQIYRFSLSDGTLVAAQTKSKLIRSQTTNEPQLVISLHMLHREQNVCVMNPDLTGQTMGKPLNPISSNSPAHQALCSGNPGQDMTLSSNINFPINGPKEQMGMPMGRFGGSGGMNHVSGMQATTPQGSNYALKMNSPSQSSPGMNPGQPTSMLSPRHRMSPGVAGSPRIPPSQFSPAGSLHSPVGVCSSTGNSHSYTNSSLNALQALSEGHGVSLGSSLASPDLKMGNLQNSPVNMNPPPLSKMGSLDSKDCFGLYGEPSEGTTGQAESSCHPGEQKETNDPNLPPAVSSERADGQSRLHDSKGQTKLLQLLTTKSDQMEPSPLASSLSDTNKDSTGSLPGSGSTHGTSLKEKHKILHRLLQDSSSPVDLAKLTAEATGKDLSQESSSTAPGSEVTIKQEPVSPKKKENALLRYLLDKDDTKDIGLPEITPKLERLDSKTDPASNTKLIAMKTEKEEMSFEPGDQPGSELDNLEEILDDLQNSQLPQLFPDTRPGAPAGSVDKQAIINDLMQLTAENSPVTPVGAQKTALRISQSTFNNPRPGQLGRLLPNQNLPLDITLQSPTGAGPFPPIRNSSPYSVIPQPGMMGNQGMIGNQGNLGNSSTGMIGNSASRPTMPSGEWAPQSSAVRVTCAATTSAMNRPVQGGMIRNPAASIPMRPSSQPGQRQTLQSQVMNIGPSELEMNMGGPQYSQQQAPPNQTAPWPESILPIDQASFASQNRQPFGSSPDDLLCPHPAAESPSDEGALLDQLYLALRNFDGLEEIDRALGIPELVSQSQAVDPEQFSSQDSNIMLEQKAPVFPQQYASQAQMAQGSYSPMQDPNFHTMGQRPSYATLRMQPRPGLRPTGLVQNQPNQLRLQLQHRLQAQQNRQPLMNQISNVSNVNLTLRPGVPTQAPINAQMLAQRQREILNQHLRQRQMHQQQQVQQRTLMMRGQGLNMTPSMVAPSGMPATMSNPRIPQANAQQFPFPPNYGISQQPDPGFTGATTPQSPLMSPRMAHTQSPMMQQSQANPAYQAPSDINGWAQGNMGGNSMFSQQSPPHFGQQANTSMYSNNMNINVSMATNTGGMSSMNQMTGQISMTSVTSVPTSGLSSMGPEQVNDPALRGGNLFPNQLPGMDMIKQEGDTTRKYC

Structure (SMILES) | inhibition
COc1cc(OC)cc(C(=O)NCC2(N3CCOCC3)CCCCC2)c1 | inactive: 12%
CN1CCC(Nc2ccc(Cl)cc2)CC1 | inactive: -17%
CN1CCC(Nc2ccc(F)c(Cl)c2)CC1 | inactive: -1.37%
CCOc1ncccc1C(=O)NCC1(N2CCOCC2)CCCCC1 | inactive: 2.26%
CCCOc1ccc(C(=O)NCC2(N(C)C)CCCCC2)cc1 | inactive: -12.2%
O=c1[nH]c2ccccc2n1C1CCN(C(c2cc3ccccc3o2)c2nnnn2C2CCCC2)CC1 (stereo not given) | inactive: -44.5%
NN(c1ccccc1)C1CCN(CCc2ccccc2)CC1 | inactive: 4.28%
O=C(O)C1(Nc2ccccc2)CCN(Cc2ccccc2)CC1 | inactive: 3.3%
CC(C)(C)OC(=O)N1CCC(Nc2ccccc2)CC1 | inactive: 32%
CC(C)(C)n1nnnc1C(c1ccnc2ccccc12)N1CCC(n2c(=O)[nH]c3ccccc32)CC1 (stereo not given) | inactive: -11.6%
CCN1CCC(Nc2cccc(F)c2)CC1 | inactive: 6.94%
COc1ccc(C(c2nnnn2C2CCCCC2)N2CCC(n3c(=O)[nH]c4ccccc43)CC2)cc1 (stereo not given) | inactive: -17.5%
Cc1ccccc1NC1(C#N)CCN(Cc2ccccc2)CC1 | inactive: -17.6%
Cn1c(=O)[nH]cc(N(CCCl)CCCl)c1=O | inactive: -29.2%
CN(C)c1ccc(C(=O)NCC2(N3CCCCC3)CCCCC2)cc1 | inactive: -15.4%
O=C(NCC1(N2CCCCC2)CCCCC1)c1ccco1 | inactive: -11.4%
O=c1[nH]c2ccccc2n1C1CCN(C(c2ccnc3ccccc23)c2nnnn2C2CCCCC2)CC1 (stereo not given) | inactive: -4.22%
COc1cc(OC)cc(C(=O)NCC2(N3CCCCC3)CCCCC2)c1 | inactive: -35.9%
CCC(c1nnnn1C1CCCCC1)N1CCC(n2c(=O)[nH]c3ccccc32)CC1 (stereo not given) | inactive: 4.82%
CC(=O)N(c1ccccc1)C1CCNCC1 | inactive: -14.1%
COc1cccc(C(c2nnnn2C2CCCCC2)N2CCC(n3c(=O)[nH]c4ccccc43)CC2)c1OC (stereo not given) | inactive: 21.3%
Cc1ccc(NC2(C#N)CCN(Cc3ccccc3)CC2)cc1 | inactive: -0.53%

Structure (SMILES) | inhibition
Fc1ccccc1NC1CCN(Cc2ccccc2)CC1 | inactive: 11.8%
Cc1ccc(C(=O)NCC2(N3CCCCC3)CCCCC2)o1 | inactive: -22.8%
O=c1[nH]c2ccccc2n1C1CCN(C(c2ccccc2)c2nnnn2C2CCCCC2)CC1 (stereo not given) | inactive: -9.72%
O=c1[nH]c2ccccc2n1C1CCN(C(c2cccc3ccccc23)c2nnnn2C2CCCC2)CC1 (stereo not given) | inactive: -22.8%
COc1cc(C(=O)NCC2(N(C)C)CCCCC2)ccc1OC(F)F | inactive: 7.32%
CCOC(=O)N1CCC(Nc2cccc(C)c2)CC1 | inactive: 11.3%
CCOc1ccc(C)cc1CN(CCCl)CCCl | inactive: -12.2%
O=C1CCN(Cc2ccccc2)CC1 | inactive: -9.98%
CC(C)(C)n1nnnc1C(c1ccccc1)N1CCC(n2c(=O)[nH]c3ccccc32)CC1 (stereo not given) | inactive: 13.6%
CCOC(=O)N1CCC(Nc2ccc(F)cc2)CC1 | inactive: -4.21%
COc1ccc(NC2CCN(CCc3ccccc3)CC2)c(OC)c1 | inactive: -28.3%
O=C(NCC1(N2CCCCC2)CCCCC1)c1ccc(F)cc1 | inactive: -2.78%
CCCCOc1ccc(C(=O)NCC2(N3CCOCC3)CCCCC2)cc1 | inactive: -20.1%
O=P1(N(CCCl)CCCl)SCCCS1 | inactive: -1.84%
CCCCn1nnnc1C(c1cc2ccccc2o1)N1CCC(n2c(=O)[nH]c3ccccc32)CC1 (stereo not given) | inactive: -2.78%
O=C(NCC1(N2CCOCC2)CCCCC1)c1cc2ccccc2o1 | inactive: -17.4%
Cc1cc(C)cc(N(C(=O)c2ccccc2)C2CCN(C(=O)OC(C)(C)C)CC2)c1 | inactive: -2.95%
O=c1[nH]c2ccccc2n1C1CCN(C(c2ccccc2OC(F)(F)F)c2nnnn2C2CCCCC2)CC1 (stereo not given) | inactive: -5.73%
O=C(NCC1(N2CCCCC2)CCCCC1)c1ccc(Cl)nc1 | inactive: -13.7%
CCCCn1nnnc1C(c1ccc(OC)cc1)N1CCC(n2c(=O)[nH]c3ccccc32)CC1 (stereo not given) | inactive: 1.46%
CCOC(=O)N1CCC(Nc2ccc(OC)cc2)CC1 | inactive: -18.5%
COc1ccc(Cl)cc1C(=O)NCC1(N2CCOCC2)CCCCC1 | inactive: 12.4%

Structure (SMILES) | inhibition
O=c1[nH]c2ccccc2n1C1CCN(C(c2cc3ccccc3o2)c2nnnn2C2CCCCC2)CC1 (stereo not given) | inactive: -32.9%
O=C(OC1CN2CCC1CC2)C1c2ccccc2Oc2ccccc21 (stereo not given) | inactive: -27.2%
N#CC1(Nc2ccccc2)CCN(Cc2ccccc2)CC1 | inactive: -5.15%
O=C(NCC1(N2CCCCC2)CCCCC1)c1ccc(Cl)s1 | inactive: -0.6%
CCCCn1nnnc1C(c1cccs1)N1CCC(n2c(=O)[nH]c3ccccc32)CC1 (stereo not given) | inactive: 27.8%
O=C(NCC1(N2CCCCC2)CCCCC1)c1cccs1 | inactive: -1.15%
CCCCn1nnnc1C(CC)N1CCC(n2c(=O)[nH]c3ccccc32)CC1 (stereo not given) | inactive: 11.3%
O=C(NCC1(N2CCCCC2)CCCCC1)c1ccc(=O)[nH]c1 | inactive: -18.9%
CCC(c1nnnn1C1CCCC1)N1CCC(n2c(=O)[nH]c3ccccc32)CC1 (stereo not given) | inactive: -1.1%
CC(C)(C)OC(=O)N1CCC(N(C(=O)c2ccccc2)c2ccc(F)cc2)CC1 | inactive: 0.23%
COc1ccc(C(=O)NCC2(N3CCCCC3)CCCCC2)c(OC)c1OC | inactive: -3.67%
COc1ccc(C(=O)NCC2(N3CCCCC3)CCCCC2)cc1 | inactive: 6.15%
Cc1cccc(NC2(C#N)CCN(Cc3ccccc3)CC2)c1 | inactive: -2.42%
CSc1ccccc1C(=O)NCC1(N2CCCCC2)CCCCC1 | inactive: 14.8%
O=C(NCC1(N2CCCCC2)CCCCC1)c1cncc(Br)c1 | inactive: -18.1%
CN1CCC(Nc2cccc(F)c2)CC1 | inactive: -1.52%
CCCOc1ccc(C(=O)NCC2(N(C)C)CCCCC2)cc1OC | inactive: 13.7%
Cc1ccc(C(=O)NCC2(N(C)C)CCCCC2)o1 | inactive: -2.58%
COc1ccc(C(c2nnnn2C2CCCC2)N2CCC(n3c(=O)[nH]c4ccccc43)CC2)cc1 (stereo not given) | inactive: -31.5%
CN(C)c1cccc(C(=O)NCC2(N3CCCCC3)CCCCC2)c1 | inactive: -31.9%
COC(=O)C1(Nc2ccccc2)CCN(Cc2ccccc2)CC1 | inactive: -20.4%
COc1ccc(CN(CCCl)CCCl)cc1Cl | inactive: 24.2%

Structure (SMILES) | inhibition
CC(C)c1ccc(NC2CCN(C(=O)OC(C)(C)C)CC2)cc1 | inactive: -12.9%
CCCCn1nnnc1C(c1ccnc2ccccc12)N1CCC(n2c(=O)[nH]c3ccccc32)CC1 (stereo not given) | inactive: -18.2%
CCC(c1nnnn1C(C)(C)C)N1CCC(n2c(=O)[nH]c3ccccc32)CC1 (stereo not given) | inactive: 0.5%
O=C(NCC1(N2CCOCC2)CCCCC1)c1cc(F)c(F)cc1Cl | inactive: -13.9%
COc1cc(OC)c(C(=O)NCC2(N(C)C)CCCCC2)cc1OC | inactive: -13.1%
O=C(NCC1(N2CCCCC2)CCCCC1)c1cccc(C(F)(F)F)c1 | inactive: -25.8%
CCCCn1nnnc1C(c1cccc2ccccc12)N1CCC(n2c(=O)[nH]c3ccccc32)CC1 (stereo not given) | inactive: 1.32%
CC(C)c1ccc(C(=O)NCC2(N3CCOCC3)CCCCC2)cc1 | inactive: -13.1%
COc1ccc(NC2CCN(C(=O)OC(C)(C)C)CC2)cc1 | inactive: -16.8%
CN1CCN(CCOC(=O)C(O)(c2ccccc2)c2ccccc2)CC1 | inactive: -3.24%
O=C(NCC1(N2CCOCC2)CCCCC1)c1cc(=O)[nH]c2ccccc12 | inactive: -22.7%
COc1cc(C(=O)NCC2(N3CCCCC3)CCCCC2)ccc1OC(F)F | inactive: -35%
O=C(NCC1(N2CCCCC2)CCCCC1)c1ccc(OC(F)F)cc1 | inactive: 1.46%
CC(C)(C)n1nnnc1C(c1ccccc1OC(F)(F)F)N1CCC(n2c(=O)[nH]c3ccccc32)CC1 (stereo not given) | inactive: 3.24%
CSc1ccc(C(=O)NCC2(N3CCOCC3)CCCCC2)cc1 | inactive: -41%
O=C(NCC1(N2CCCCC2)CCCCC1)c1cccc([N+](=O)[O-])c1 | inactive: -19.6%
N#CC1(Nc2ccccc2)CCN(CCc2ccccc2)CC1 | inactive: -14.8%
O=c1[nH]c2ccccc2n1C1CCN(C(c2ccccc2OC(F)(F)F)c2nnnn2C2CCCC2)CC1 (stereo not given) | inactive: 9.63%
CCN1CCC(Nc2ccc(Cl)cc2)CC1 | inactive: 1.7%

Source: PubChem BioAssay AID651957 (The Scripps Research Institute Molecular Screening Center, 2012)
